Data: patent US9822127B2, “GAK modulators as antivirals” (Katholieke Universiteit Leuven, priority 2014, dated 2017)

Legend:
Huh-7 cells = test: Viability assay, alamarBlue, DENV infected Huh-7 cells; settings: 72 hours; further: test concentration or dose not given here

In the case of `COc1cc(-c2cnc3c(N4CCOCC4)snc3c2)ccc1N` [Example 50, 2-Methoxy-4-(3-morpholinoisothiazolo[4,3-]pyridin-6-yl)aniline], the “effect on cellular viability” value (Huh-7.5 cells) is reported as “minimal effect on cellular viability”, the CC50 (Huh-7.5 cells; human) is reported as 8.92 ± 1.43 µM and the “effect on cellular viability” value (Huh-7 cells) is reported as “minimal effect on cellular viability”.
